# Test results taken from PubChem BioAssay AID1385 (PCMD, 2008).
# By UniProt entry, the sequences of proteins in these tests, tags left out.
# UniProt Q06609, whole entry: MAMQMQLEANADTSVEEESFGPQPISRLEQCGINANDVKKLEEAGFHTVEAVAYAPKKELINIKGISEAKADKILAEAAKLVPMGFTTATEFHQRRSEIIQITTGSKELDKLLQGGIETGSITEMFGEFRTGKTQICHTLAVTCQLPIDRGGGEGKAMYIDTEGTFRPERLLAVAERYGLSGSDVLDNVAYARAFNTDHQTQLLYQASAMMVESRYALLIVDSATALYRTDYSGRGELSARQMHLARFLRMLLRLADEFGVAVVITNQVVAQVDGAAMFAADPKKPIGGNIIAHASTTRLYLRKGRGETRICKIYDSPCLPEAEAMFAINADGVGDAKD
# This is a selection; strong and weak results do not stand in their true shares. Some tests of the compounds listed are not included; inactive here does not mean inactive elsewhere. The source made the active and inactive calls.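 Rule for the calls: active = inhibition above 40% at the single screening dose; inactive = the rest.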
# Target: DNA repair protein RAD51 homolog 1 (Homo sapiens) (UniProt Q06609)
# Test: blockers of RAD51-mediated homologous recombination – biochemical, fluorescence, primary screen (AID 1385);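 note: 0% = DMSO control wells and 100% = blanks with heterologous ssDNA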
# Conditions: hRad51 DNA strand exchange, fluorescence dequenching; at 10 µM; active compounds read high
row,Compound,inhibition
1,COc1cccc(C(=O)NCC2(N3CCCCC3)CCCCC2)c1,inactive: 9.06%
2,O=C(OC1CN2CCC1CC2)C(CO)(c1ccccc1)c1ccccc1 (stereo not given),inactive: 0.49%
3,COc1ccc(Br)c(C(=O)NCC2(N3CCCCC3)CCCCC2)c1,inactive: -38.4%
4,CN(C)c1cccc(C(=O)NCC2(N(C)C)CCCCC2)c1,inactive: 16.2%
5,CCN(CC)CC(C)C(C)OC(=O)C(O)(c1ccccc1)c1ccccc1 (stereo not given),inactive: 1.12%
6,CC(C)N1C(=O)CC2(CCN(CCOC(=O)C(O)(c3ccccc3)c3ccccc3)CC2)C1=O,inactive: 3.57%
7,Cc1ccccc1C(=O)NCC1(N2CCCCC2)CCCCC1,inactive: -18.8%
8,CN(C)C1CCCC1OC(=O)C(O)(c1ccccc1)c1ccccc1 (stereo not given),inactive: 1.54%
9,C=CCN1CCN(CCOC(=O)C(O)(c2ccccc2)c2ccccc2)CC1,inactive: 11.1%
10,CCN1CCCC(OC(=O)C2(O)c3ccccc3C=Cc3ccccc32)C1 (stereo not given),inactive: -31.6%
